Results from PMC5551644.
Where two headings read alike, the source gives them in different places.

Chains of the proteins cited; added tags and fusions are not shown. Residues count along the entry.
UniProt P37173, 23-166: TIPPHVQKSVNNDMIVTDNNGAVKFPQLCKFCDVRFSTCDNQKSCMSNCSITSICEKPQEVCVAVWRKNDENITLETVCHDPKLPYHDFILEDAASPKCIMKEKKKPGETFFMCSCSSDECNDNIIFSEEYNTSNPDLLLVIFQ

Columns and labels:
[1] = molecular target: T1, TGF-β2TM, variant of TGF-β2 bearing K25R, I92V, and K94R substitutions (human); assay: SPR
T1 sequence (P61812 303-414 with K25R I92V K94R, looked up): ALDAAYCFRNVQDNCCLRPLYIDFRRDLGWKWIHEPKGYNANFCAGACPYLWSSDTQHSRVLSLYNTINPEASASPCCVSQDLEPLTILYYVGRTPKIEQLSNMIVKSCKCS

[2] = molecular target: TGF-β2/BGO complex (human | rat) (UniProt P26342); assay: SPR
[3] = molecular target: TGF-β2/BG_(O-ZP) complex (human | rat) (UniProt P26342); assay: SPR
[4] = molecular target: TGF-β2TM/BGO complex (human | rat) (UniProt P26342); assay: SPR
[5] = molecular target: TGF-β2TM/BG_(O-ZP) binary complex (human | rat) (UniProt P26342); assay: SPR
[6] = molecular target: T1, TGF-β2TM, variant of TGF-β2 bearing K25R, I92V, and K94R substitutions (human); assay: SPR; remark: listed apart in the source
[7] = molecular target: T1, TGF-β2TM, variant of TGF-β2 bearing K25R, I92V, and K94R substitutions (human); assay: SPR; remark: listed apart in the source
[8] = molecular target: TGF-β2TM/BG_(O-ZP) binary complex (human | rat) (UniProt P26342); assay: ITC
[9] = molecular target: T1, TGF-β2TM, variant of TGF-β2 bearing K25R, I92V, and K94R substitutions (human); assay: SEC-MALS
[10] = molecular target: T1, TGF-β2TM, variant of TGF-β2 bearing K25R, I92V, and K94R substitutions (human); assay: SEC

Kd [1]: 129 nM
Kd [2]: 130 nM
Kd [3]: 1070 nM
Kd [4]: 30 nM
Kd [5]: 43 nM
Kd [6]: 148 nM
Kd [7]: 145 nM
Kd [8]: 510 nM
dH [8]: -29.3 kJ mol^–1
stoichiometry N [8]: 1.04 sites
stoichiometry N (TβRII per TGF-β2TM homodimer) [9]: 2
stoichiometry N (TβRII per TGF-β2TM homodimer) [10]: 2
Substance: TGF-β type II receptor extracellular domain (from UniProt P37173 23-166)
